Test system: ALK in Karpas 299 cells
Test: Western blotting of phosphorylation in Karpas 299 cells
Settings: 0, 0.1, 0.3, or 1.0 uM for three hours, FIG. 22

C[C@@H](Oc1cc(-c2cnn(C3CCNCC3)c2)cnc1N)c1c(Cl)ccc(F)c1Cl [crizotinib]
ALK, STAT3 and ERK phosphorylation: inhibited
